Test results reported in ChEMBL document CHEMBL1135047, “Discovery of 5-hydroxyalkyl-4-phenylpyridines as a new class of glucagon receptor antagonists” (Bioorg Med Chem Lett, 2002).

Protein sequences, listed by entry. Tags and fused reporters are not part of them.
UniProt P47871, whole entry: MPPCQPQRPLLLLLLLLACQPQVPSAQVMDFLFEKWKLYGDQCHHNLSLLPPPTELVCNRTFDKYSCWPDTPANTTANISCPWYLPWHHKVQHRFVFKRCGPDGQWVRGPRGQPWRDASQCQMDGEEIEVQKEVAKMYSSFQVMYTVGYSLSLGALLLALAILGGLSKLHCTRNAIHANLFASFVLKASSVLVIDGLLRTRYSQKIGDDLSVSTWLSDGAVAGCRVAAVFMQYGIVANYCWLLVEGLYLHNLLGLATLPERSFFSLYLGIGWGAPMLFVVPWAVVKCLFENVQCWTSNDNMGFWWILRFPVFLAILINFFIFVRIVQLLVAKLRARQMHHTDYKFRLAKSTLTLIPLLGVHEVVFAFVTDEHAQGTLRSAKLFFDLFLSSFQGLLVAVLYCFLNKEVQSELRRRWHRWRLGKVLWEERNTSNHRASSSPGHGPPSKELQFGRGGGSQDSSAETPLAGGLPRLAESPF

Each compound was assayed against Glucagon receptor (Homo sapiens, UniProt P47871) (assay: Inhibitory concentration against binding to the human glucagon receptor (hGR)).

Question: For `CCCc1c(C(C)C)nc(C(C)C)c(C(C)O)c1-c1ccc(F)cc1` (centres undefined), which IC50 is on record?
Answer: Its IC50 is 220 nM.

Question: How did the IC50 turn out when `CCCCCCc1c(C(C)C)nc(C(C)C)c(C(C)O)c1-c1ccc(F)cc1` (centres undefined) was run?
Answer: Its IC50 is 240 nM.

Question: With `CCCCCCc1c(C(C)C)nc(C(C)C)c([C@@H](C)O)c1-c1ccc(F)cc1` (single isomer, unassigned) as the compound, how does the IC50 read?
Answer: Its IC50 is 120 nM.

Question: With `CCCc1c(C(C)C)nc(C(C)C)c([C@@H](C)O)c1-c1ccc(F)cc1` (single isomer, unassigned) as the compound, how does the IC50 read?
Answer: The IC50 was 110 nM.
